Experimental data published in patent EP1366764A1, “Method of screening for calcium receptor-active molecules” (The Brigham & Women's Hospital, Inc., priority 1993, dated 1994).

Test system: bovine parathyroid cells
Assay: Measurement of cytosolic Ca2+ ([Ca2+]i, fura-2): mobilization of intracellular Ca2+ in bovine parathyroid cells
Format: cell-based
Settings: tested at 2mM

In the case of NCCCCN [Putrescine], the “mobilization of intracellular Ca^2+” value is reported as “inactive”.
